Where “and” joins values, the source holds several entries; their conditions need not be identical. Equal values may be shown once. Where a name gives a salt, the structure may show the parent alone.
Tests used:
TK6 cells = details: 24 h, samples across the dose range tested (four doses, not given)

[H]/N=C(/N)N/C(=N/[H])NCCc1ccccc1 [phenformin HCl, Phenformin HCl]
genotoxicity (3D EpiIntestinal™ tissue): no genotoxicity was detected
cytotoxicity (TK6 cells): 50% and 60% and 35% and 40%
